Experimental data reported in patent US20260078130A1, “NAMPT MODULATORS, PREPARATIONS, AND USES THEREOF” (SIRONAX LTD., priority 2022, published 2026).
Like-named read-outs stand apart in the source and are kept apart here.

The chains behind the UniProt entries cited, without tags or fusion partners.
UniProt P43490, whole entry: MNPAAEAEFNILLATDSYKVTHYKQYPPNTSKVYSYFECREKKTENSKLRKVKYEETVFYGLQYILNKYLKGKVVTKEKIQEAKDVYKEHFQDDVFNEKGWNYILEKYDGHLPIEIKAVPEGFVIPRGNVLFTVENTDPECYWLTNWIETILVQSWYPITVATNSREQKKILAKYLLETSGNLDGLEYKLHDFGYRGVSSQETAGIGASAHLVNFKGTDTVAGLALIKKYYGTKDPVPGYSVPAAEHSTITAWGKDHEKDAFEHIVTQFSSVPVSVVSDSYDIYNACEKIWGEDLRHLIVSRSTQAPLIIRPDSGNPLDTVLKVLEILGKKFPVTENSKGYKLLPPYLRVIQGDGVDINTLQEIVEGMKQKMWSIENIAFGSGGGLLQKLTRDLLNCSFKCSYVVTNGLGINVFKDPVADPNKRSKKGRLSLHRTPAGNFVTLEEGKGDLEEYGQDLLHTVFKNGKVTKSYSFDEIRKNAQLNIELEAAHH

What was measured:
[1] = system: endogenous NAMPT in U2OS cells; assay: Cellular NAD+ modulation assay (NAD/NADH-Glo, U2OS cells)
[2] = biological target: human enzyme NAMPT (full length) (Homo sapiens, UniProt P43490); assay: NMN fluorescence biochemical assay (stimulation of NMN synthesis by NAMPT); conditions: for Enzymatic Emax: fold change of maximal activation compared to DMSO; for EC50: read-out: Enzymatic EC50, concentration giving half-maximal activation
[3] = 24 hours incubation with compound
[4] = read-out: Cellular EC50, 24 hours incubation with compound
[5] = NMN synthesis by purified human NAMPT (100 nM)
[6] = 24 hours incubation, cellular NAD+
[7] = read-out: Cellular EC50, 24 hours incubation, cellular NAD+
[8] = NMN fluorescence assay, purified human NAMPT 100 nM

Row | Structure (SMILES) | Cellular Emax [1, 3] | EC50 [1, 4] [nM] | Enzymatic Emax [2] | EC50 [2, 5] [nM] | Cellular Emax [1, 6] | EC50 [1, 7] [nM] | EC50 [2, 8] [nM]
1 | O=C1c2ccccc2C(Cc2ncccc2C(F)F)N1Cc1ccc2[nH]c(=O)oc2c1 (single isomer, unassigned) [Compound 192/193 (RT = 1.680 min)] | A (A>1.5) | 500 to 5000 | A (A>3) | 500 to 5000 | – | – | –
2 | Cc1ccnc(C#N)c1CC1c2ccccc2C(=O)N1C[C@H]1C[C@]2(CNC(=O)O2)C1 (single isomer, unassigned) [Compound 407/408 (RT = 3.760 min)] | – | – | B (3≥B>2) | – | A (A>1.5) | < 500 | < 500
3 | Cn1ncc(Cl)c1CC1c2cc(F)cc(F)c2C(=O)N1C[C@H]1C[C@]2(CNC(=O)O2)C1 (single isomer, unassigned) [Compound 549/550 (RT = 3.877 min)] | – | – | A (A>3) | – | A (A>1.5) | < 500 | 500 to 5000
4 | CC1c2cc(C3CC3)ccc2C(=O)N1Cc1ccc2[nH]c(=O)oc2c1 (single isomer, unassigned) [Compound 126/127 (Int 10/Int 11: RT = 1.969 min as a startin] | A (A>1.5) | 500 to 5000 | B (3≥B>2) | 500 to 5000 | – | – | –
5 | O=C1c2ccccc2C(Cc2nn(C3COC3)cc2Cl)N1Cc1ccc2[nH]nnc2c1 (single isomer, unassigned) [Compound 378/379 (RT = 5.826 min)] | – | – | B (3≥B>2) | – | A (A>1.5) | < 500 | < 500
6 | O=C1c2ccccc2C(Cc2ccccc2)N1Cc1ccc2[nH]c(=O)oc2c1 (single isomer, unassigned) [Compound 107/108 (RT = 2.417 min)] | C (1.2≥C) | 5000 to 50000 | B (3≥B>2) | – | – | – | –
7 | N#CNC1=NCC2(CC(CN3C(=O)c4ccccc4C3Cc3ncccc3Br)C2)O1 (single isomer, unassigned) [Compound 530/531 (RT = 2.900 min)] | – | – | A (A>3) | – | A (A>1.5) | < 500 | 500 to 5000
8 | COc1ccc(CN2C(=O)c3ccccc3C2Cc2c(Cl)cnn2C)cc1F (single isomer, unassigned) [Compound 633/634 (RT = 2.496 min)] | – | – | A (A>3) | – | B (1.5≥B>1.2) | < 500 | 500 to 5000
9 | Cn1ncc(Cl)c1CC1c2ccccc2C(=O)N1Cc1ccc2[nH]nnc2c1 (single isomer, unassigned) [Compound 319/320 (RT = 4.047 min)] | – | – | A (A>3) | – | B (1.5≥B>1.2) | < 500 | < 500
10 | CC1(CN2C(=O)c3ccccc3C2Cc2ncccc2Br)CC2(CNC(=O)O2)C1 (single isomer, unassigned) [Compound 376/377 (RT = 4.54 min)] | – | – | B (3≥B>2) | – | A (A>1.5) | < 500 | 500 to 5000
11 | Cn1ncc(Cl)c1CC1c2cc(Cl)cc(F)c2C(=O)N1C[C@H]1C[C@]2(CNC(=O)O2)C1 (single isomer, unassigned) [Compound 553/554 (RT = 4.617 min)] | – | – | A (A>3) | – | B (1.5≥B>1.2) | < 500 | 500 to 5000
12 | Cn1ncc(Cl)c1CC1c2cccc(F)c2C(=O)N1C[C@H]1C[C@]2(CNC(=O)O2)C1 (single isomer, unassigned) [Compound 426/427 (RT = 3.262 min)] | – | – | B (3≥B>2) | – | A (A>1.5) | < 500 | < 500
13 | N#Cc1cccnc1CC1c2ccccc2C(=O)N1Cc1ccc2[nH]c(=O)oc2c1 (single isomer, unassigned) [Compound 258/259 (RT = 2.246 min)] | A (A>1.5) | < 500 | A (A>3) | 500 to 5000 | – | – | –
14 | O=C1c2ccccc2C(Cc2ccccc2)N1Cc1ccc2[nH]c(=O)oc2c1 (single isomer, unassigned) [Compound 107/108 (RT = 3.042 min)] | A (A>1.5) | 500 to 5000 | A (A>3) | 500 to 5000 | – | – | –
15 | Cc1ncnc(C#N)c1CC1c2ccccc2C(=O)N1C[C@H]1C[C@]2(CNC(=O)O2)C1 (single isomer, unassigned) [Compound 545/546 (RT = 9.713 min)] | – | – | A (A>3) | – | A (A>1.5) | < 500 | < 500
16 | CC1c2cc(Br)ccc2C(=O)N1Cc1ccc2[nH]c(=O)oc2c1 (single isomer, unassigned) [Compound 138/139 (Int 10/Int11: RT = 1.969 min as a starting] | A (A>1.5) | 500 to 5000 | A (A>3) | 500 to 5000 | – | – | –
17 | CC1c2cc(CN3CCOCC3)ccc2C(=O)N1Cc1ccc2[nH]c(=O)oc2c1 (single isomer, unassigned) [Compound 144/145 (Int 10/Int11: RT = 1.969 min as a starting] | A (A>1.5) | 500 to 5000 | A (A>3) | – | – | – | –
18 | O=C1c2ccccc2C(Cc2ccccc2C(F)(F)F)N1Cc1ccc2[nH]c(=O)oc2c1 (single isomer, unassigned) [Compound 135/136 (RT = 2.971 min)] | A (A>1.5) | 500 to 5000 | A (A>3) | < 500 | – | – | –
19 | Cc1ccnc(C#N)c1CC1c2ccccc2C(=O)N1Cc1ccc2[nH]nnc2c1 (single isomer, unassigned) [Compound 368/369 (RT = 3.334 min)] | – | – | B (3≥B>2) | – | A (A>1.5) | < 500 | < 500
20 | O=C1NC[C@]2(C[C@H](CN3C(=O)c4ccccc4C3Cc3ncccc3Br)C2)O1 (single isomer, unassigned) [Compound 345/346 (RT = 2.358 min)] | – | – | A (A>3) | – | A (A>1.5) | < 500 | < 500
21 | O=C1c2ccccc2C(Cc2ncccc2Br)N1Cc1ccc2[nH]c(=O)oc2c1 (single isomer, unassigned) [Compound 206/207 (RT = 1.302 min)] | A (A>1.5) | < 500 | A (A>3) | < 500 | – | – | –
22 | Cn1ncc(Cl)c1CC1c2ccccc2C(=O)N1C[C@H]1C[C@]2(C1)OC(=O)NC2=O (single isomer, unassigned) [Compound 569/644 (RT = 9.799 min)] | – | – | B (3≥B>2) | – | B (1.5≥B>1.2) | 500 to 5000 | –
23 | Cn1nc(Cl)c(Cl)c1CC1c2ccccc2C(=O)N1C[C@H]1C[C@]2(CNC(=O)O2)C1 (single isomer, unassigned) [Compound 533/534 (RT = 1.708 min)] | – | – | B (3≥B>2) | – | B (1.5≥B>1.2) | < 500 | < 500
24 | O=C1NCC2(CC(F)(CN3C(=O)c4ccccc4C3Cc3ncccc3Br)C2)O1 (single isomer, unassigned) [Compound 441/442 (RT = 4.47 min)] | – | – | B (3≥B>2) | – | A (A>1.5) | < 500 | < 500
25 | COc1ccc(CN2C(=O)c3ccccc3C2Cc2c(Cl)cnn2C)cc1 (single isomer, unassigned) [Compound 617/618 (RT = 2.932 min)] | – | – | A (A>3) | – | B (1.5≥B>1.2) | < 500 | 500 to 5000
26 | [2H]C1([2H])NC(=O)O[C@]12C[C@@H](CN1C(=O)c3ccccc3C1Cc1c(Cl)cnn1C)C2 (single isomer, unassigned) [Compound 536/537 (RT = 2.643 min)] | – | – | A (A>3) | – | A (A>1.5) | < 500 | < 500
